Ab-95 light chain CDR variants: yeast mating affinities

All variants were tested on one target, the spike HR2 peptide PDVDLGDISGINAS (SARS-CoV-2).

Each scFv is VH, the linker GGGGSGGGGSGGGGS, VL, as in the parent Ab-95, and differs from it in the CDRs of the light chain only.
VH: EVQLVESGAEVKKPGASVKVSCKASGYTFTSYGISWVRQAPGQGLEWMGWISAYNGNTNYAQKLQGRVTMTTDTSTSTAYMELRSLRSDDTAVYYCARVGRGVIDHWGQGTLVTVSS
VL: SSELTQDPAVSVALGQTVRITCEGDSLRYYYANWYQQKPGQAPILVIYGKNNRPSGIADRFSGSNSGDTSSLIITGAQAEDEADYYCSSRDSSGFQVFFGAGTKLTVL

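Phage display of a naive human antibody library on the peptide gave the parent. Variants in AAYL52 differ from the parent at up to three CDR positions; double and triple changes were sampled at random. The assay is AlphaSeq: two haploid yeast populations carry antibody and antigen on their surface. After mating in shaken culture at 30 °C for 16 h, diploids were selected and their barcode pairs sequenced. A regression on co-assayed BCL2-family reference pairs converts the normalised counts of each replicate to an apparent Kd. Each pool was mated in three replicate cultures.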

Changes read parent residue, position, new residue, counted from the first residue of the VL shown.
Affinities are written as log10 Kd with Kd in nM; a lower number is a better binder.
A pair that was not seen in that replicate is written "n.d."; this usually means weak binding, but a binder can also be missed.

changes	log10 Kd (nM) by replicate	signal with controls
Y29P+S89I+F95L	3.66 / 3.41 / 4.33	1 of 9 (3.31)
A32T+S89M+S92M	4.44 / n.d. / 3.58	0 of 9
E23L+R90W+D91I	3.41 / 2.79 / n.d.	1 of 9 (4.21)
N33V+R53W+S55E	n.d. / n.d. / n.d.	1 of 9 (3.90)
L27C+N33T+S88G	5.45 / 4.68 / n.d.	4 of 9 (4.04)
Y31T+A32Y+S93C	n.d. / 4.46 / n.d.	0 of 9
Y30H+S89P+Q96D	2.21 / 1.89 / 1.73	4 of 9 (3.64)
A32Q+N51W+Q96R	n.d. / 4.26 / n.d.	3 of 9 (4.20)
Y30A+P54S+S89K	2.57 / 3.06 / 1.93	4 of 9 (3.20)
R53Y+R90E+V97S	4.12 / 3.87 / 3.39	1 of 9 (4.81)
R90I+D91V+F95H	n.d. / 4.11 / n.d.	0 of 9
R28L+N33H+G49F	n.d. / n.d. / n.d.	0 of 9
Y30G+A32R	2.72 / 2.65 / 2.72	2 of 9 (3.80)
K50D+S89H+F95S	1.66 / 1.71 / 1.33	5 of 9 (3.69)
D25I+Y31E+A32I	2.68 / 2.75 / 2.79	2 of 9 (3.33)
A32T+S89A+V97M	2.18 / 1.81 / 1.35	2 of 9 (4.56)
K50D+G94M+V97Q	2.58 / 1.88 / 2.16	6 of 9 (4.00)
Y29W+N52H+Q96I	4.43 / 3.65 / n.d.	3 of 9 (4.89)
G24L+S93T	n.d. / 3.76 / 3.19	1 of 9 (3.92)
N33H+P54Y+G94Y	n.d. / n.d. / n.d.	0 of 9
Y31E+N51T+S93N	2.51 / 2.53 / 2.11	5 of 9 (3.87)
D25N+G49M+K50T	n.d. / n.d. / n.d.	1 of 9 (4.14)
N51Q+N52T+D91S	3.30 / 2.73 / 3.02	3 of 9 (3.48)
S55Y+F95T+V97M	5.48 / n.d. / n.d.	2 of 9 (3.89)
R28E+S89V+V97I	2.61 / n.d. / 3.44	2 of 9 (3.77)
E23H+Y29N+A32M	2.31 / 2.50 / 1.78	2 of 9 (3.94)
S89C+R90S	2.83 / 2.35 / 3.54	0 of 9
A32R+S55M+Q96R	3.33 / n.d. / n.d.	2 of 9 (3.31)
E23P+G49K+P54D	4.09 / 5.68 / 4.35	4 of 9 (3.90)
S55R+F98T	3.33 / 3.04 / 2.79	5 of 9 (4.11)
Y29K+A32M+V97A	3.99 / 3.87 / n.d.	2 of 9 (3.91)
Y29D+K50W+N52Q	2.27 / 1.93 / 1.89	3 of 9 (4.46)
E23Y+S26T+D91C	n.d. / n.d. / n.d.	0 of 9
S55M+S88T	2.49 / 2.52 / 2.70	5 of 9 (4.11)
K50L+S92G+V97G	n.d. / 5.78 / n.d.	3 of 9 (3.98)
P54S+G94P	2.80 / 3.17 / 2.29	3 of 9 (3.84)
D25P+Y29S+R53E	3.27 / 3.45 / n.d.	1 of 9 (2.57)
R90E	n.d. / 5.41 / 3.41	4 of 9 (3.98)
Y30G+Y31P+S55Y	1.48 / 1.52 / 0.82	3 of 9 (3.96)
L27Q+R90C+G94P	3.21 / n.d. / n.d.	4 of 9 (3.83)
G49F+R53I+S55A	4.47 / 4.30 / n.d.	0 of 9

For reference, 5 entries of the list once more:

{"changes": "K50D+G94M+V97Q", "log10 Kd (nM) by replicate": "2.58 / 1.88 / 2.16", "signal with controls": "6 of 9 (4.00)"}
{"changes": "Y30A+P54S+S89K", "log10 Kd (nM) by replicate": "2.57 / 3.06 / 1.93", "signal with controls": "4 of 9 (3.20)"}
{"changes": "G24L+S93T", "log10 Kd (nM) by replicate": "n.d. / 3.76 / 3.19", "signal with controls": "1 of 9 (3.92)"}
{"changes": "R28E+S89V+V97I", "log10 Kd (nM) by replicate": "2.61 / n.d. / 3.44", "signal with controls": "2 of 9 (3.77)"}
{"changes": "Y30H+S89P+Q96D", "log10 Kd (nM) by replicate": "2.21 / 1.89 / 1.73", "signal with controls": "4 of 9 (3.64)"}

Nonspecific signal, from three strains lacking the peptide, appeared in 28% of pairings of library AAYL52, centred on 3.91 (5% of these signals below 2.90); values are not corrected for it. The control count says in how many pairings with the empty strains this scFv gave a signal, with their mean in brackets.

The measurements come from Engelhart et al. 2022 (doi:10.1038/s41597-022-01779-4) through the FLAb antibody collection.